By IC50 is commonly meant the concentration at which inhibition is half-maximal.

By UniProt entry, the sequences of proteins in these tests, tags left out. Chains listed by the source or under a name are the forms on record and can include a tag or linker.
UniProt Q07343, other isoform, or with tags, fused parts or gaps: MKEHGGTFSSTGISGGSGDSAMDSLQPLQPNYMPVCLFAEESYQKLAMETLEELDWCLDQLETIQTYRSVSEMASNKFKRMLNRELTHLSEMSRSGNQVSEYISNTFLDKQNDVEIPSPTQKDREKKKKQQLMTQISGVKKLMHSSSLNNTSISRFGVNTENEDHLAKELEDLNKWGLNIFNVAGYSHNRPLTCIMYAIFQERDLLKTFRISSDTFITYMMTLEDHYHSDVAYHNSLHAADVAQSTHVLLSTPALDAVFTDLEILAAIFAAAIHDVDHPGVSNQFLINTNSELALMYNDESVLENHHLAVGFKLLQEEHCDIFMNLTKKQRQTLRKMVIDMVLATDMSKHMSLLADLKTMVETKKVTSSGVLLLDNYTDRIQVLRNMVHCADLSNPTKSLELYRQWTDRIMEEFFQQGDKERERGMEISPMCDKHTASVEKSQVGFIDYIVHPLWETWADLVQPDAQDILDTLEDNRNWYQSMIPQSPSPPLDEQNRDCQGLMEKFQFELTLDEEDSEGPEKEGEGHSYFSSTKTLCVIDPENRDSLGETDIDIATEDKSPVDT

Molecules are shown by their SMILES. Where two headings read alike, the source gives them in different places.

The target of the test is Human recombinant PDE4B2 (Homo sapiens (Human), UniProt Q07343). As to the kind of experiment: PDE4B2 HTRF assay. In kind it is biochemical. Here is the method: PDE4B2 activity is detected using the LANCE Ultra cAMP homogeneous time resolved fluorescence resonance energy transfer (TR-FRET) assay from Perkin Elmer. The assay is based on the competition between the europium (Eu) chelate-labeled cAMP tracer and sample cAMP for binding sites on cAMP-specific monoclonal antibodies (mAb) labelled with the ULight™ dye. The assay is carried out in 384-well low volume plates in a volume of 10 μl. Human recombinant PDE4B2 (80 pM) is incubated for 2 h with 3 nM cAMP in buffer containing 1×HBSS, 5 mM HEPES, 3 mM MgCl2, 0.1% BSA, pH 7.4 with or without test compounds. The enzymatic reactions are efficiently stopped by the addition of 500 μM IBMX present in the combined Stop/Detection buffer containing europium (Eu) chelate-labeled cAMP tracer and cAMP-specific monoclonal antibodies (mAb) labelled with the ULight™ dye. […] IC50 values are determined from competition curves using a non-linear curve fitting program.
(In general: TR-FRET usually uses a lanthanide donor and a delayed reading to cut background.)

With `COc1ccc([C@H](Cc2c(Cl)c[n+]([O-])cc2Cl)OC(=O)c2ccc(CNC(C(=O)OC[C@@H]3CCN3C)c3ccccc3)s2)cc1OC` (stereo partly drawn) [Example 27, [(1S)-2-(3,5-dichloro-1-oxido-pyridin-1-ium-4-yl)-1-(3,4-dimethoxyphenyl)ethyl] 5-[[[2-[[(2S)-1-methylazetidin-2-yl]methoxy]-2-oxo-1-phenyl-ethyl]amino]methyl]thiophene-2-carboxylate], the half-maximal inhibitory concentration (IC50) (PDE4B2 HTRF assay) is 1 to 10 nM.
Same read-out and setting: the value for `COc1ccc([C@H](Cc2c(Cl)c[n+]([O-])cc2Cl)OC(=O)c2ccc(CNC(C(=O)OC[C@H]3CCN3C)c3ccccc3)s2)cc1OC` (stereo partly drawn) [Example 28, [(1S)-2-(3,5-dichloro-1-oxido-pyridin-1-ium-4-yl)-1-(3,4-dimethoxyphenyl)ethyl] 5-[[[2-[[(2R)-1-methylazetidin-2-yl]methoxy]-2-oxo-1-phenyl-ethyl]amino]methyl]thiophene-2-carboxylate] was 1 to 10 nM.
The same measure, in the same setting: the result for `COc1ccc([C@H](Cc2c(Cl)c[n+]([O-])cc2Cl)OC(=O)c2ccc(CNC(C(=O)OC[C@H]3CCCN3C)c3ccccc3)s2)cc1OC` (stereo partly drawn) [Example 15, [(1S)-2-(3,5-dichloro-1-oxido-pyridin-1-ium-4-yl)-1-(3,4-dimethoxyphenyl)ethyl] 5-[[[2-[[(2R)-1-methylpyrrolidin-2-yl]methoxy]-2-oxo-1-phenyl-ethyl]amino]methyl]thiophene-2-carboxylate] reads 1 to 10 nM.
Turning to `COc1ccc([C@H](Cc2c(Cl)c[n+]([O-])cc2Cl)OC(=O)c2ccc(CNC3(C(=O)OCC4CCN(C)CC4)CCc4ccccc43)s2)cc1OC` (stereo partly drawn) [Example 38, [(1S)-2-(3,5-dichloro-1-oxido-pyridin-1-ium-4-yl)-1-(3,4-dimethoxyphenyl)ethyl]5-[[[1-[(1-methyl-4-piperidyl)methoxycarbonyl]indan-1-yl]amino]methyl]thiophene-2-carboxylate], the IC50 was in the range of 1 to 10 nM.

(Values after patent publication US9636336B2, “Aminoester derivatives” (CHIESI FARMACEUTICI S.p.A., priority 2015, dated 2017).)
